# Data from PubChem BioAssay AID602405 (Broad Institute, 2012).
# This is a selection; strong and weak results do not stand in their true shares. Some tests of the compounds listed are not included; inactive here does not mean inactive elsewhere. Active and inactive are the calls of the source. Cut-off read from the data, not from the text of the source: active = inhibition above about 16% (passing the limit was not always enough); inconclusive = no clear call, values can overlap the other calls; inactive = below that.
# Tested on: UDP-N-acetylbacillosamine N-acetyltransferase PglD (Campylobacter jejuni)
# Experiment: C. jejuni PglD acetyltransferase inhibitors, primary screen, biochemical, DTNB colorimetric, single point (AID 602405)
# Conditions: purified PglD enzyme, DTNB colorimetric CoA detection; at 12.5 µM; stronger effect = higher value
row,SMILES,inhibition
1,COc1ccc(Br)c(C(=O)NCC2(N3CCCCC3)CCCCC2)c1,inactive: 6.88%
2,C=C(C)C#CC(O)(C(=O)OC1CCN(C)CC1)c1ccccc1 (centres undefined),inactive: 1.31%
3,CN(C)c1cccc(C(=O)NCC2(N(C)C)CCCCC2)c1,inactive: -9.9%
4,O=C(OCCN1CCCC1)C(O)(c1ccccc1)c1ccccc1,inactive: 3.48%
5,CC(C)Oc1ccc(C(=O)NCC2(N(C)C)CCCCC2)cc1,inactive: 4.81%
6,CN(C)C1(CNC(=O)c2ccc(Br)cc2)CCCCC1,inactive: 1.87%
7,COc1cc(C(=O)NCC2(N(C)C)CCCCC2)c([N+](=O)[O-])cc1OC,inactive: -6.23%
8,COc1ccc(Cl)cc1C(=O)NCC1(N(C)C)CCCCC1,inactive: 2.63%
9,O=C(NCC1(N2CCCCC2)CCCCC1)c1cccc(Cl)c1,inactive: 2.55%
10,CN(C)c1ccc(C(=O)NCC2(N(C)C)CCCCC2)cc1,inactive: 3.12%
11,O=C(NCC1(N2CCCCC2)CCCCC1)c1cc(F)c(F)cc1Cl,inactive: 0.113%
12,O=C(NCC1(N2CCCCC2)CCCCC1)c1cccc(Br)c1,inactive: 0.035%
13,Cc1cc(C(=O)NCC2(N3CCCCC3)CCCCC2)ccc1[N+](=O)[O-],inactive: -1.67%
14,COc1ccc(C(=O)NCC2(N(C)C)CCCCC2)cc1,inactive: 6.08%
15,CN1[C@@H]2CC[C@H]1CC(OC(=O)C(O)(c1ccccc1)c1ccccc1)C2 (some centres undefined),inactive: 3.49%
16,CC(C)N1C(=O)CC2(CCN(CCOC(=O)C(O)(c3ccccc3)c3ccccc3)CC2)C1=O,inactive: 2.49%
17,COc1cc(SC)ccc1C(=O)NCC1(N(C)C)CCCCC1,inactive: -5.67%
18,CCN(CC)CC(C)C(C)OC(=O)C(O)(c1ccccc1)c1ccccc1 (centres undefined),inactive: 1.27%
19,Cc1ccc(C(=O)NCC2(N3CCCCC3)CCCCC2)cc1,inactive: -0.127%
